Results from paper doi:10.1101/2020.07.01.182642v1 (biorxiv, 2020).

Chains of the proteins cited; added tags and fusions are not shown. Lines headed by an entry give the natural chain unless they say otherwise; changes in a name come on top. Residues count along the entry.
UniProt P49761, 134-484 A319V: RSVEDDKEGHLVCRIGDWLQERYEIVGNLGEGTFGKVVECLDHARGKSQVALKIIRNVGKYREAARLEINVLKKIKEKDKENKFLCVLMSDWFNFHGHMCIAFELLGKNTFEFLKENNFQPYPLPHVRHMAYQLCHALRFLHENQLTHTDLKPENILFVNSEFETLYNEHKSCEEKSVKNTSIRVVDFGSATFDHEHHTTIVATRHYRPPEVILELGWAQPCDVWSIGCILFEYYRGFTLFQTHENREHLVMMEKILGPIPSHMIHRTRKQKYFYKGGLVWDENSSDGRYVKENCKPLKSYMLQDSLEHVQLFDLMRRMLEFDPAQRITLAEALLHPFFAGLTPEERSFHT
UniProt P49761, 134-484: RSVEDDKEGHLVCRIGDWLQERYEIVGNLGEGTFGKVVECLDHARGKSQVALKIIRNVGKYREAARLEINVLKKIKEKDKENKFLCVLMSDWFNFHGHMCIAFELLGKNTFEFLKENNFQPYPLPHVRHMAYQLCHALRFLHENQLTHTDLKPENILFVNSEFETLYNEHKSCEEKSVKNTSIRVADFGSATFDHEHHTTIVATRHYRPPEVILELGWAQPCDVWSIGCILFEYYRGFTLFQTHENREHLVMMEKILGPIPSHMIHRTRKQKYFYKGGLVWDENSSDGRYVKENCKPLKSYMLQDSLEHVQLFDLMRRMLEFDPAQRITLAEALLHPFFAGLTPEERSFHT
UniProt P11309, whole entry: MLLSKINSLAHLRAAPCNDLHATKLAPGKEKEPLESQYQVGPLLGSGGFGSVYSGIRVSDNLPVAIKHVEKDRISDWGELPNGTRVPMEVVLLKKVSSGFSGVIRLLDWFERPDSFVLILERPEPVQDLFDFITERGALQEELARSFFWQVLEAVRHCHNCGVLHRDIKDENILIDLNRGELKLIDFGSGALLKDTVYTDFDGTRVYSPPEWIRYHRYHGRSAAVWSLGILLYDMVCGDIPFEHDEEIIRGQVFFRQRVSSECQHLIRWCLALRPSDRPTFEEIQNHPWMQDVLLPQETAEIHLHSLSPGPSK
UniProt Q9HAZ1: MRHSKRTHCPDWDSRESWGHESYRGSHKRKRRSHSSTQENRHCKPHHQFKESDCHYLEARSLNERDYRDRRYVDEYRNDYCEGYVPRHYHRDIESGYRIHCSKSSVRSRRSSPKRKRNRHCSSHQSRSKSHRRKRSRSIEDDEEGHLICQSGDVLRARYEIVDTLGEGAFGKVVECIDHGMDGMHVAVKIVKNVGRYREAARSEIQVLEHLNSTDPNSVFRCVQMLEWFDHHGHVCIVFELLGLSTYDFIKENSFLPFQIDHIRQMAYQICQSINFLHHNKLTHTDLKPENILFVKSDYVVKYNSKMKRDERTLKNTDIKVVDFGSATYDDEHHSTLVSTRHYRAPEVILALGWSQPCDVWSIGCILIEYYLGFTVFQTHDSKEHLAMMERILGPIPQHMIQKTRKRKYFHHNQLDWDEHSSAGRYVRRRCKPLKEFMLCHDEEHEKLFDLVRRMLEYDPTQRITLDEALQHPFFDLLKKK
UniProt P49674: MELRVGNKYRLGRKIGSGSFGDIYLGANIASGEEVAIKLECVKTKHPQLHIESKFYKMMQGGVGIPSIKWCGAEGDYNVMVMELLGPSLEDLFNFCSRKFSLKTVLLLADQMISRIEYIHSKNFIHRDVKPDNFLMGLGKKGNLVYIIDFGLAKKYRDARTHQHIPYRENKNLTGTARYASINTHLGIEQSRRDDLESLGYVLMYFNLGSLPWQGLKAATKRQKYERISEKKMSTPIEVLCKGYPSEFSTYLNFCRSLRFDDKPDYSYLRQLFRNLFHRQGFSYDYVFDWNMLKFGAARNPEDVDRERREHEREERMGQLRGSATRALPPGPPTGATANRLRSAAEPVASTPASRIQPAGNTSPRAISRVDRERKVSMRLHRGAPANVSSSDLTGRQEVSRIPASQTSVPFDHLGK

How the values were obtained:
[1] = molecular target: T1, CLK3 (R134-T484) (Homo sapiens, UniProt P49761, A319V); conditions: binder
[2] = molecular target: PIM1 (Homo sapiens, UniProt P11309); conditions: binder
[3] = molecular target: DYRK1A (Homo sapiens, UniProt Q13627); conditions: binder
[4] = molecular target: CLK4 (Homo sapiens, UniProt Q9HAZ1); conditions: binder
[5] = molecular target: CSNK1E (Homo sapiens, UniProt P49674); conditions: binder
[6] = molecular target: T2, CLK3 (R134-T484) (Homo sapiens, UniProt P49761); conditions: binder
[7] = molecular target: T2, CLK3 (R134-T484); test: ITC; format: binding
[8] = molecular target: CLK3 (Homo sapiens, UniProt P49761); conditions: binder
[9] = molecular target: T1, CLK3 (R134-T484); test: Omnia kinase assay; format: biochemical
[10] = molecular target: T2, CLK3 (R134-T484); test: Omnia kinase assay; format: biochemical

CCN1/C(=C/C(C)=O)Sc2ccc(OC)cc21 [compound 2, TG003]
ΔTm A319V CLK3 [1]: 5.8 °C | ΔTm inhibitor 2 [2]: 5.9 °C | ΔTm inhibitor 2 [3]: 6.1 °C | ΔTm inhibitor 2 [4]: 9.8 °C | ΔTm inhibitor 2 [5]: 5.1 °C | ΔTm wild type CLK3 [6]: 1.1 °C | Kd [7]: 7.78 ± 0.9 µM | ΔTm (°C) 2 [8]: 2.2 degC | Ki [9]: 0.32 ± 0.05 µM | Ki [10]: 5.2 ± 2 µM
